By UniProt entry, the sequences of proteins in these tests, tags left out. Where a name states a change or a piece, a line headed by the entry shows the natural chain unless it says otherwise.
UniProt Q92633: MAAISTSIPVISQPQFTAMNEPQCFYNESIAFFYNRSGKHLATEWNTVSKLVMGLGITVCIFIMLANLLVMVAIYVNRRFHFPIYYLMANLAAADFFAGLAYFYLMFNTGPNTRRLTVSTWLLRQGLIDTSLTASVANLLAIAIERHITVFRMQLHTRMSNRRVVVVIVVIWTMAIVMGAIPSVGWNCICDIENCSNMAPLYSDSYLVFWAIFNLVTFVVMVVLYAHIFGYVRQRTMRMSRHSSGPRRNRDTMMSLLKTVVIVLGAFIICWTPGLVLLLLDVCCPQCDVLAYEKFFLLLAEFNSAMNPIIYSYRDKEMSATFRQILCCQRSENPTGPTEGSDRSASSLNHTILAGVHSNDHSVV

In patent EP4755881A1 (Wuhan Createrna Science and Technology Co., Ltd., priority 2023, dated 2025):

Assays:
[1] = target: hLPAR1 (human lysophosphatidic acid receptor 1, Accession No.: NM_001401.4) (Homo sapiens, UniProt Q92633); assay: cell-based; settings: Table 1; FLIPR method, CHO-K1 cells overexpressing hLPAR1; read-out: LPAR1 inhibitory activity IC50
Method: The antagonist properties of the compounds in the present disclosure were determined using the FLIPR (Fluorometric Imaging Plate Reader) method in CHO-K1 cells (Chinese Hamster Ovary cells K1, ATCC) overexpressing hLPAR1 (human lysophosphatidic acid receptor 1, Accession No.: NM_001401.4).
CHO-K1 cells stably expressing hLPAR1 were placed in a cell culture incubator at 37°C with 5% CO2 and cultured in F-12 medium containing 10% FBS (fetal bovine serum, Gibco, 10099-141), 1% penicillin-streptomycin (Gibco, 15140-122), and 0.4 mg/mL Hygromycin B (Gibco, 10687010). 18-24 hours before the FLIPR experiment, the cells were seeded into a 96-well plate at a density of 250,000 cells/mL (25,000 cells/well) and incubated overnight in the cell culture incubator. […] The cell plate was then placed into the FLIPR for baseline fluorescence measurement (excitation wavelength at 485 nm, emission wavelength at 525 to 535 nm). Subsequently, 50 µL/well of agonist (final concentration 1 µM oleoyl-L-α-lysophosphatidic acid sodium salt (Sigma, L7260)) or vehicle (ultrapure water) was added, and fluorescence values were measured at 1-second intervals for 2 min. Finally, the output fluorescence counts were analyzed using GraphPad Prism 9.0 software log(inhibitor) vs. response--Variable slope (four parameters) equation to calculate IC50 values. […]

LPAR1 receptor = target: T1, LPAR1 receptor (Homo sapiens, UniProt Q92633); assay: LPAR1 in vitro biological activity evaluation 2: HTRF cAMP kit (LANCE Ultra cAMP Kit) assay in CHO stable transfected cell line expressing the LPAR1 receptor; type: cell-based; settings: Table 2, read-out: LPAR1 inhibitory activity IC50
T1 construct: expressed in transfected cells
Method: The inhibitory effects of the compounds of the present disclosure on the LPAR1 receptor were determined using a Chinese hamster ovary (CHO) stable transfected cell line expressing the LPAR1 receptor, through the HTRF cAMP kit (LANCE® Ultra cAMP Kit).
The CHO cell line expressing the LPAR1 receptor was cultured in F-12 medium (Gibco, 117650054) containing 10% fetal bovine serum (FBS, Avantor, 76294-180) and 0.2 mg/mL hygromycin B (Solarbio, H8080-1g) at 37°C with 5% CO2. Cell passage, recovery, and cryopreservation were performed according to conventional methods. The stable transfected cell line was cultured to 80% confluence, digested with trypsin to collect cells, counted, and then seeded at 5 µL/well in a 384-well plate (500 cells/5 µL). The 1× Stimulation Buffer was prepared according to the instructions of the kit (LANCE® Ultra cAMP Kit). 1 µL of the test compound solution (diluted to 10× with 1× Stimulation Buffer) was added to the corresponding experimental wells, followed by centrifugation and incubation at 37°C for 10 minutes. […] After the incubation was completed, the readings at 665 nm and 620 nm under 330 nm excitation were detected using the HTS high-throughput drug screening multifunctional microplate reader (BMG, PHERAstar FSX). The IC50 values were calculated by fitting nonlinear regression (dose response - variable slope) using GraphPad Prism software. […]

IC50 [1] [nM]	SMILES	IC50 (LPAR1 receptor) [nM]
34.5	CCCCN(C)C(=O)OCc1c(-c2ccc(C#CC3(CC(=O)O)CC3)c(C(F)(F)F)n2)nnn1C [compound 102]	
	CCC(F)(F)[C@@H](C)OC(=O)Nc1c(-c2ccc(C#CC3(CC(=O)O)CC(OC)C3)c(C)n2)nnn1C (stereo partly drawn) [compound 279]	39
	CCC(F)(F)[C@@H](C)OC(=O)Nc1c(-c2ccc(C#CC3(CC(=O)O)CC4(CC4)C3)c(F)n2)nnn1C [compound 501]	14.7
